Earlier results in US8188055B2, “Inactivators of O6-alkylguanine-DNA alkyltransferase” (The United States of America, as represented by the …, priority 2007, dated 2012).

Molecular target: T1, human alkyltransferase (Homo sapiens, UniProt P16455)
T1 sequence (P16455 1-207): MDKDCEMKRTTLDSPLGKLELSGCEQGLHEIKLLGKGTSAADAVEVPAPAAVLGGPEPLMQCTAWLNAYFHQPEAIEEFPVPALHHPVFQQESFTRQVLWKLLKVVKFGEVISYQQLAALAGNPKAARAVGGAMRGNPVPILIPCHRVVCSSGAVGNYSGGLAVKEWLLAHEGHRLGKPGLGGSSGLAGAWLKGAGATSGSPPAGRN
Details: previously published, read-out: ED50 for inactivation of alkyltransferase, cited from earlier work

Nc1nc(OCc2ccccc2)c2nc[nH]c2n1 [O^6-benzylguanine]
EC50 (+DNA): 100 nM | EC50 (−DNA): 300 nM

Where two headings read alike, the source gives them in different places.
